Biological target: ROCKII (1-543) (Homo sapiens, UniProt O75116)
Assay: IMAP Assay (fluorescence polarization, FAM S6 peptide)
Conditions: read-out: Assay 2 IC50; IMAP FP, 1 nM ROCKII (1-543), 100 μM ATP
Protocol: This assay is performed using FAM S6 substrate peptide (Catalogue #R7184) and IMAP FP Screening Express Kit detection reagents from Molecular Devices (Sunnyvale, Calif.) in IMAP kinase reaction buffer (Tris-HCl, pH 7.2, 10 mM MgCl2, 0.05% NaN3, 0.1% phosphate-free BSA) containing 1 mM DTT. Test compounds dissolved in neat DMSO at 0.3 mg/mL are serially diluted 1 to 3 for concentration response in 100% DMSO. The DMSO serial dilutions are further diluted 33.33-fold in kinase reaction buffer, and 10 μL of this buffer dilution is transferred to Corning black 96-well half area NBS plates for a final top concentration of 3 μg/mL in 1% DMSO. 10 μL aliquot of 3 nM ROCKII (1-543) diluted in kinase reaction buffer is added to each assay well for a final concentration of 1 nM kinase. […] The kinase reaction is stopped by addition of 60 μL IMAP progressive binding reagent (Catalog #R7284) diluted 400-fold in 1× Binding buffer A. After 30 min of incubation at room temperature, the plates are read for fluorescence polarization on Analyst Plate Reader using Ex 485 nm, Em 530 nm, and FL 505 dichroic mirror. […]
Where A, B, C, and D are fitted parameters (parameter B is fixed at zero POC), and x and y are the independent and dependent variables, respectively. The IC50 is determined as the inflection point parameter, C.

By UniProt entry, the sequences of proteins in these tests, tags left out. Residues count along the entry.
UniProt O75116, 1-543 limits assumed: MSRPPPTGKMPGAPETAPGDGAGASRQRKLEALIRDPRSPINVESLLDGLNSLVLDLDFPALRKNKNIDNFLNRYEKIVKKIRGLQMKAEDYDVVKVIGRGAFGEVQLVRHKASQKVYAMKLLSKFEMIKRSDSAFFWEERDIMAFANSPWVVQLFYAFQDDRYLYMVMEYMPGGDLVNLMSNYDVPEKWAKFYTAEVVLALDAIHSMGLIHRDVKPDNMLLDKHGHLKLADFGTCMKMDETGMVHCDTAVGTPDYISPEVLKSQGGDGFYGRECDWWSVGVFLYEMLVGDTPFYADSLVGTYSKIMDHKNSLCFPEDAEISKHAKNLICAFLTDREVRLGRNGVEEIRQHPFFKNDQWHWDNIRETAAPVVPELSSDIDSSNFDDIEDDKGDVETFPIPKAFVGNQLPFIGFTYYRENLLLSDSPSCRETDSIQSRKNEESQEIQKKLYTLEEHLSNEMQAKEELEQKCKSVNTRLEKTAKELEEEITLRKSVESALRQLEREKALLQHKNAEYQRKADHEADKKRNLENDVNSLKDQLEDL

IC50: 370 pM
SMILES: N#Cc1ccc(-c2cnn(Cc3cccc(C(=O)Nc4nc5c(s4)C[C@@H](N4CCCCC4)CC5)c3)c2)cc1

Reference: patent publication US9000154B2, “Rho kinase inhibitors” (Boehringer Ingelheim International GmbH, priority 2010, dated 2015)
